Binding of CDR-mutated scFvs to a peptide of the spike HR2 region

Source: Engelhart et al. 2022 (doi:10.1038/s41597-022-01779-4), MIT Lincoln Laboratory and A-Alpha Bio; data file from the FLAb repository.

The target is the same throughout: PDVDLGDISGINAS, from the HR2 region of SARS-CoV-2 spike.

Ab-14 is the parent antibody, in scFv form: VH, then three GGGGS repeats, then VL. The light chain is unchanged in all variants.
VH: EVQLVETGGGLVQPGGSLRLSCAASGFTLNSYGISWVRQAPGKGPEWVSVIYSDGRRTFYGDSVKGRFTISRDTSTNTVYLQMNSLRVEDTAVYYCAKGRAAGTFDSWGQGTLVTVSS
VL: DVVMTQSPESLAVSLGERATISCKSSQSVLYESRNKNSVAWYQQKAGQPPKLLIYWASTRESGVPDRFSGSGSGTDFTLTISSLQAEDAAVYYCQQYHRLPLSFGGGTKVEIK

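The parent was found by panning a naive human phage display library on the peptide. The library (AAYL49) carries one to three amino acid substitutions per variant, with no insertions or deletions. The scFvs were displayed on barcoded MATa yeast, the peptide on MATalpha yeast. Mating (16 h, 30 °C) was followed by selection of diploids and sequencing of their barcodes. Scores were corrected for input abundance and mapped to Kd with protein pairs of known affinity run in the same pool. Each pool was mated in three replicate cultures.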

The parent's heavy chain CDRs are GFTLNSYGIS, VIYSDGRRTFYGDSVK, GRAAGTFDS; each variant's own CDRs replace them letter for letter.
Scale: log10 of Kd in nM, estimated from mating counts; low values are strong binders.
Averages over replicates are reported, and they cover detected replicates only.
"nd" marks a missing value. The strain was present, yet no cells mated with the target were sequenced in that replicate, which points to weak or no binding.
As a blank, each scFv also met three strains without target: over library AAYL49, 15% of these pairings were detected, typically at 4.06 and seldom below 2.83. Also given: how often the same scFv was detected with the empty control strains, with their mean in brackets.
In this assay the parent's reference entry averaged 0.65; its copy inside this library read 4.11 (one replicate of three).

CDR-H1	CDR-H2	CDR-H3	log10 Kd (nM) by replicate	mean, log10 nM	empty controls
GFTSNSYGIS	VIYSDARRTFYGDSVK	GRAAGTFDP	nd nd nd	nd	0/9
GFTLNSYGIS	VIYPDFRRTFYGDSVK	GRAAGTDDS	nd nd nd	nd	0/9
GFTLNQYGDS	VIYIDGRRTFYGDSVK	GRAAGTFDS	3.94 4.14 nd	4.04	2/9 (3.80)
GFTLNSYGLS	VIYSDGRFTFYGDSVK	GIAAGTFDS	nd nd nd	nd	0/9
VFTLNSYGIS	VIYSDGHRTFYGDEVK	GRAAGTFDS	nd nd 4.35	4.35	1/9 (4.04)
GFTLNSYGIL	VIYSDGRRTFYGDSVK	GRTAGTFDS	3.31 nd 4.05	3.68	2/9 (4.16)
WFTLNSYRIS	VIYSDGRRTFYGDSVK	GRAFGTFDS	nd nd nd	nd	5/9 (4.39)
GFTLNSYGIS	VIYSAGRVTFYGDSVK	QRAAGTFDS	nd nd nd	nd	0/9
GPTLVSYGIS	VIYSDGRRTFPGDSVK	GRAAGTFDS	4.87 4.70 5.06	4.88	7/9 (4.47)
GFTLRSYGIS	VIYQDGRRTFYGDVVK	GRAAGTFDS	nd nd nd	nd	1/9 (4.08)
GFTLNSYGIS	VIYSDGRSTAYGDSVK	GRAAGFFDS	nd 4.08 nd	4.08	1/9 (3.95)
CFTLNSYGIS	VGKSDGRRTFYGDSVK	GRAAGTFDS	nd nd nd	nd	1/9 (3.96)
GFTLNSYGIS	VIYSDGRRTFCGASVK	GRRAGTFDS	nd nd nd	nd	0/9
GFTLNSYGIS	VIYGDMRRTFYRDSVK	GRAAGTFDS	nd nd nd	nd	0/9
GFTLNSYGII	VVYSDGRRTFYGDSVK	GRAAGTFNS	nd nd nd	nd	2/9 (3.89)
GFTMNSYGIS	NIYSDGRRTFYGDSVK	GRAAGTEDS	nd 3.84 nd	3.84	4/9 (4.62)
GFTLNSCGKS	VIYVDGRRTFYGDSVK	GRAAGTFDS	nd nd nd	nd	0/9
GFTLNSVGIS	VIYSDGRRTMYRDSVK	GRAAGTFDS	nd nd nd	nd	0/9
GFTLNSYGIS	VIYSDMRRTFKGDSVK	GRAAGTFDS	nd nd nd	nd	0/9
GFTLNSYGIS	VIYADGRRKFYGDSVK	PRAAGTFDS	nd 3.22 nd	3.22	2/9 (3.93)
GFTLNSYGIS	VIYSDGRRYFYGDSDK	GRAAGTFDS	4.94 nd nd	4.94	1/9 (4.42)
GFTVYSYGIS	VIPSDGRRTFYGDSVK	GRAAGTFDS	nd nd nd	nd	0/9
GFPLNSYGIS	VMYSDGRRTFYGDSDK	GRAAGTFDS	nd nd nd	nd	0/9
GFTLNSYRIS	VIYSDGRRTFYGDSVK	GRAAGTFDS	nd nd nd	nd	0/9
GFTVNSYGIS	VIYSDGDRTFYGASVK	GRAAGTFDS	2.03 2.13 2.30	2.15	2/9 (3.77)
GFTLNSYGIS	VIYSDGRRTFYGDSVK	GRAEGAFDS	0.93 1.09 1.28	1.10	4/9 (4.53)
GFTLNSYGIS	VIYSDGRRTFYGDSPK	GRAAGTFES	nd nd nd	nd	0/9
GFTLNSYGIS	VDYSDGRRTFYQDSVK	GRAAGTFDR	2.67 2.36 2.34	2.46	1/9 (3.09)
GFTRNSMGLS	VIYSDGRRTFYGDSVK	GRAAGTFDS	nd 2.64 nd	2.64	1/9 (3.43)
GFTTNSNGIS	VIYSDGRRTFYGDSEK	GRAAGTFDS	nd 2.87 4.02	3.45	3/9 (4.35)
GFTLNSYGIS	VIYSDGRRTFYGDSVK	GPAAGTFDS	0.73 1.18 0.91	0.94	1/9 (4.49)
GFTLNSYGIS	VIHSDGRRTHYGDSVK	GRAAGTFDS	nd nd nd	nd	2/9 (4.04)
GFTLNSYGIS	PYYSDGRRTFYGDSVK	WRAAGTFDS	nd nd nd	nd	0/9

The first 4 variants above that were never detected:

CDR-H1	CDR-H2	CDR-H3	log10 Kd (nM) by replicate	mean, log10 nM	empty controls
GFTSNSYGIS	VIYSDARRTFYGDSVK	GRAAGTFDP	nd nd nd	nd	0/9
GFTLNSYGIS	VIYPDFRRTFYGDSVK	GRAAGTDDS	nd nd nd	nd	0/9
GFTLNSYGLS	VIYSDGRFTFYGDSVK	GIAAGTFDS	nd nd nd	nd	0/9
WFTLNSYRIS	VIYSDGRRTFYGDSVK	GRAFGTFDS	nd nd nd	nd	5/9 (4.39)